# Antibody variant affinities, Ab-91 heavy chain, assay 2

Target: peptide PDVDLGDISGINAS, taken from heptad repeat 2 (HR2) of SARS-CoV-2 spike.

Parent scFv Ab-91: VL joined to VH by a 15-residue (Gly4Ser)3 linker. Changes lie in the heavy chain CDRs alone.
VL: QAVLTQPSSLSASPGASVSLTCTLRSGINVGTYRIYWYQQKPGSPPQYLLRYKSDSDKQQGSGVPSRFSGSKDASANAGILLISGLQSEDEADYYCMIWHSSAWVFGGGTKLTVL
VH: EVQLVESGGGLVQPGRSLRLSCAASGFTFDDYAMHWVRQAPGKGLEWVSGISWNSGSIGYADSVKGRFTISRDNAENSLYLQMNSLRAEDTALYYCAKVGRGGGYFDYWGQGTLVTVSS

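Variants in AAYL51 differ from the parent at up to three CDR positions; double and triple changes were sampled at random. AlphaSeq pools MATa yeast showing the antibodies with MATalpha yeast showing the peptide. Pairs that bind mate more often; barcode pairs of the diploids are counted by sequencing. Read counts were normalised to the haploid input and turned into Kd by a linear fit to BCL2-family pairs of known affinity, for each replicate. Mating was done three times.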

Variants are written as CDR1, CDR2 and CDR3 of the heavy chain (limits as in the source). Parent: GFTFDDYAMH, GISWNSGSIGYADSVK, VGRGGGYFDY. All variants listed here change Y105 of the VH, counted from its first residue. Values are apparent Kd, the geometric mean of the replicates that gave a signal; lower means stronger binding. A pair that was not seen in any replicate is written "nd"; this usually means weak binding, but a binder can also be missed. Three control strains display no target. For library AAYL51, 21% of the pairings with them gave a signal, with a median of 34 µM and one signal in twenty below 1.8 µM, so weak values seen in few replicates may be background.

Variant GFTFDDYAMH / GISWNSGSIGYADSVK / GGRGGWNFDY gave nd (0 of 3 replicates).
Variant GFWFDDYAMH / GISWNSGSIQYADSVK / VGRGGGMFDY gave nd (0 of 3 replicates).
Variant GFTFDDYAMH / GISWNSGSIGYAMSVK / VGRGGGRFDY gave nd (0 of 3 replicates).
Variant GFTFDDYAMH / GSWWNSGSIGYADSVK / VGRGGGDFDY gave 2.3 µM (1 of 3 replicates).
Variant GFTFDDYAMH / GISWNSGSIWYADSVT / VGRGGGDFDY gave 24 µM (3 of 3 replicates).
Variant GFTFGDYAMH / GISWNSGSIGYADSVK / VGRAGGTFDY gave nd (0 of 3 replicates).
Variant GITFDDYWMH / GISWNSGSIGYADSVK / VGRGGGEFDY gave nd (0 of 3 replicates).
Variant GFTFDDYAMH / GISWNSGKIGYAFSVK / VGRGGGCFDY gave 42 µM (2 of 3 replicates).
Variant NMTFDDYAMH / GISWNSGSIGYADSVK / VGRGGGPFDY gave 99 µM (3 of 3 replicates).
Variant LFTFDDYAMH / GISWNSGNIGYADSVK / VGRGGGQFDY gave nd (0 of 3 replicates).
Variant GFTFDDYAMH / GISWNFGSIGYADSVK / YGRGGGDFDY gave 3.5 mM (1 of 3 replicates).
Variant GFTFWDYAMH / GISWNSGSIGYADSVK / VGRGGGHFDY gave nd (0 of 3 replicates).
Variant EFTFEDYAMH / GISWNSGSIGYADSVK / VGRGGGIFDY gave nd (0 of 3 replicates).
Variant QFTFDDYAMC / GISWNSGSIGYADSVK / VGRGGGHFDY gave 33 µM (1 of 3 replicates).
Variant GFTFDDYAMH / GISWNSGSIGYADSVK / VGRGGGSFDE gave 24 nM (3 of 3 replicates).
Variant GFTFDDYAMH / GISWNSGSIGYPDSVK / VFRGGGWFDY gave nd (0 of 3 replicates).
Variant GFTFDDYAMH / GGSWNSGSIFYADSVK / VGRGGGTFDY gave 3.9 mM (2 of 3 replicates).
Variant GFTFDDYAMI / GISWNSGSIGYADSVK / VGRGGGGFDR gave nd (0 of 3 replicates).
Variant GRTFDDYAMH / GNSWNSGSIGYADSVK / VGRGGGWFDY gave 150 µM (1 of 3 replicates).
Variant GVTFDDYAMH / GISWNSGSIGYADSVK / VGRGGGAFEY gave 160 µM (3 of 3 replicates).
Variant GFTFDDHAMH / GISWNSGSIGYAPSVK / VGRGGGGFDY gave 29 µM (1 of 3 replicates).
Variant GFTFDDYAMH / GVSWNSGSIGYADSVK / TGRGGGFFDY gave 16 nM (3 of 3 replicates).
Variant GFTFDDYAMM / GISWNSGSIGYADSVK / VGRGGGMNDY gave nd (0 of 3 replicates).
Variant GFTFDDYADH / GISWNSGSIGYADEVK / VGRGGGSFDY gave nd (0 of 3 replicates).
Variant GFTFDEYAMH / GSSWNSGSIGYADSVK / VGRGGGWFDY gave nd (0 of 3 replicates).
Variant GFTFDVYAMH / GISWNRGSIGYADSVK / VGRGGGCFDY gave 10 µM (1 of 3 replicates).
Variant GFWDDDYAMH / GISWNSGSIGYADSVK / VGRGGGKFDY gave nd (0 of 3 replicates).
Variant GFTFDDYAMH / GISWNSGSIGYADSVK / YGRAGGIFDY gave 3.2 nM (3 of 3 replicates).
Variant GFTFDDYAMH / GISWNSGSIGYADSVK / VGKGGGWFDY gave 2.2 µM (2 of 3 replicates).
Variant GFTFDDYAAH / GISWNSGSIGYADSVK / VARGGGSFDY gave 34 µM (1 of 3 replicates).
Variant GFTFDDYAMH / GISWNSGSVGYADSVK / VGRGGGNFSY gave 76 µM (3 of 3 replicates).
Variant GFTFDVYAMH / GISWNSGSIGYADGVK / VGRGGGMFDY gave 12 µM (2 of 3 replicates).
Variant GFTFDDYAMH / GISWNSGSIGYADSVI / VGRGGGWFDY gave nd (0 of 3 replicates).
Variant GFTFDSYAMH / GISWNSGSIGHADSVK / VGRGGGVFDY gave nd (0 of 3 replicates).
Variant GFTFDDYDMH / GISWNSGSIGYMDSVK / VGRGGGLFDY gave nd (0 of 3 replicates).
Variant WFTFDDYAMH / GISYNSGSIGYADSVK / VGRGGGQFDY gave 320 µM (2 of 3 replicates).
Variant GFTFDDYAMH / GISWNSGSIGYADSVK / VGRGGGGFDY gave 7.6 nM (3 of 3 replicates).
Variant GFTFDDYAMH / GGSWNSGSIGYADSVK / VGRGGGHFDY gave 59 µM (2 of 3 replicates).
Variant GFTFDDYAMH / GISWNSGSIGYADSVK / LGRGGGLFDY gave nd (0 of 3 replicates).
Variant GFTFDDYAMH / GISWNSGSIGYADSVK / VGRGMGNTDY gave 35 µM (2 of 3 replicates).
Variant GFTFDDYFMH / GISWNSGSIGYADSVK / VGSGGGRFDY gave nd (0 of 3 replicates).
Variant GFTFDDYAIH / GISWNSGSIGYADSVK / VGRGGGGFDC gave 47 nM (3 of 3 replicates).
Variant GFTFDDYAMH / GISWNSGSCGYAMSVK / VGRGGGLFDY gave 7.3 µM (3 of 3 replicates).
Variant GFTFDDYAMH / PISWNSGSDGYADSVK / VGRGGGMFDY gave 88 µM (3 of 3 replicates).
Variant GFYFDDYAMH / GISWNSGSIGYADSVK / VGRGGGDFDY gave nd (0 of 3 replicates).
Variant GFRFDDYAMH / GISWNSGSIGYADSVK / VGRGGGCFDY gave nd (0 of 3 replicates).

3 of these entries, quoted again:

Variant GFTFDDYAMH / GISWNSGSVGYADSVK / VGRGGGNFSY showed 76 µM (3 of 3 replicates).
Variant GFTFDDYAMH / GISWNSGSIGYADSVK / GGRGGWNFDY showed nd (0 of 3 replicates).
Variant QFTFDDYAMC / GISWNSGSIGYADSVK / VGRGGGHFDY showed 33 µM (1 of 3 replicates).

The measurements come from Engelhart et al. 2022 (doi:10.1038/s41597-022-01779-4) through the FLAb antibody collection.